# Results reported in paper doi:10.1101/2025.02.03.636340 (bioRxiv, 2025).
# B1: β-arr1-ΔCTD-Halo (rat beta-arrestin 1 lacking the autoinhibitory C-terminal domain, aa 383-418) (domain or fragment)
# chain: MGDKGTRVFKKASPNGKLTVYLGKRDFVDHIDLVDPVDGVVLVDPEYLKERRVYVTLTCAFRYGREDLDVLGLTFRKDLFVANVQSFPPAPEDKKPLTRLQERLIKKLGEHAYPFTFEIPPNLPCSVTLQPGPEDTGKACGVDYEVKAFCAENLEEKIHKRNSVRLVIRKVQYAPERPGPQPTAETTRQFLMSDKPLHLEASLDKEIYYHGEPISVNVHVTNNTNKTVKKIKISVRQYADICLFNTAQYKCPVAMEEADDTVAPSSTFCKVYTLTPFLANNREKRGLALDGKLKHEDTNLASSTLLREGANREILGIIVSYKVKVKLVVSRGGLLGDLASSDVAVELPFTLMHPKPKEEPPHREVPESETPVDTNLIELDTN
# modifications: Halo tag labelled with CA-JF549 (or a mix of CA-JF549 and CA-JF646)
# Molecular target: SNAP-β2AR (human beta-2 adrenergic receptor) (human, UniProt P07550, SNAP tag labelled with SBG-JF646)
# Assay: single molecule pulldown
binder,measurement,value
B1,% colocalization,~20%
